The data set in a line: Solubility in water according to DAB 10. It is filed as physicochemical. An excerpt:
The solubility in water for the active substance and the substance or substances forming the lipophilic matrix can be defined as specified in DAB 10 (Deutsches Arzneibuch, 10th edition with 3rd supplement 1994, Deutscher Apothekerverlag, Stuttgart und Govi Verlag, Frankfurt/Main, 2nd supplement (1993), IV Allgemeine Vorschriften, pp. 5-6, “Löslichkeit und Lösungsmittel”; see also Ph. Eur. Jul. 4, 2004). The solubility is defined by the number of parts by volume of solvent for 1 part by weight of substance or drug. The definition of “sparingly soluble” includes substances which require from 30 to 100 parts by volume of solvent for 1 part by weight of substance or drug, and the definition of “slightly soluble” includes substances which require from 100 to 1000 parts by volume of solvent for 1 part by weight of substance or drug.

On to “beta-Interferon human: slightly soluble protein active substance”, for which the “solubility in water according to DAB 10” value was “at least 600 parts of water for 1 part of active substance” and the “solubility in water, equivalent” value is 2000 µg/mL.
